Literature values as cited in US11304902B2, “Pharmaceutical compositions, preparation and uses thereof” (CURADIGM SAS, priority 2014, dated 2022).
“Also recorded” adds a separate entry of the source.

Chains of the proteins cited; added tags and fusions are not shown.
UniProt P08684, whole entry: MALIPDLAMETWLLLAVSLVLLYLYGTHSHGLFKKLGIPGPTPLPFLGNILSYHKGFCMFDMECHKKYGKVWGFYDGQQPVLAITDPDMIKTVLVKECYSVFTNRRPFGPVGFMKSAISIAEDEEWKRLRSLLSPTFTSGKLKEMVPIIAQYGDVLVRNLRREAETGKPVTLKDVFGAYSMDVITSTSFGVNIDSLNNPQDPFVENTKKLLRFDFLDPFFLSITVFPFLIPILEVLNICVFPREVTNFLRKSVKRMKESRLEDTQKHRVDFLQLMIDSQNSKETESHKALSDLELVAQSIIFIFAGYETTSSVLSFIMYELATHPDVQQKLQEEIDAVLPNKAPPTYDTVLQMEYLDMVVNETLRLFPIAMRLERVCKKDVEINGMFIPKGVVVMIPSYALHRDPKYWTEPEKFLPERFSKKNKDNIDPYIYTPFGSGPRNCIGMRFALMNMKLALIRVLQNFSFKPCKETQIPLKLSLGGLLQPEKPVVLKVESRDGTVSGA

Biological target: CYP3A4 (Homo sapiens, UniProt P08684)
Conditions: human CYP enzyme

## O=C1Nc2ccc(Cl)cc2[C@@](C#CC2CC2)(C(F)(F)F)O1 [Efavirenz, efavirenz]
  role towards CYP3A4 (substrate / inhibitor / inducer): Substrate; also recorded: Inducer; also recorded: Inhibitor
